One assay concerns the target Human M3 receptor (Homo sapiens, UniProt P20309). Put plainly: M3 Receptor Radioligand Binding Assay. To be noted: read-out: M3 binding affinity, Human M3 receptor membranes, classified in ranges.
A further assay deals with Human β2 adrenoceptor (Homo sapiens, UniProt P07550). Briefly: β2 Adrenoceptor Radioligand Binding Assay. As to conditions: read-out: B2 binding affinity, Human β2 adrenoceptor membranes, classified in ranges.

Regarding `O=C(Nc1cccc(C(O)(C(=O)O[C@H]2CN3CCC2CC3)c2ccccc2)c1)c1ccc(OCCCCCNC[C@H](O)c2ccc(O)c3[nH]c(=O)ccc23)cc1` (stereo partly shown), the IC50 on Human M3 receptor is 300 to 3000 pM; on Human β2 adrenoceptor it was less than 300 pM.
The like results for `O=C(O[C@H]1CN2CCC1CC2)C(O)(c1ccccc1)c1ccc(OCCCCCNC[C@H](O)c2ccc(O)c3[nH]c(=O)ccc23)cc1` (stereo partly shown) were, in that order, 300 to 3000 pM and less than 300 pM.

The values are drawn from patent publication US9579314B2 (priority 2015, dated 2017).
